Assay results published in BindingDB's records for 12538807.

Protein sequences, listed by entry. Tags and fused reporters are not part of them. Lines headed by an entry give the natural chain unless they say otherwise; changes in a name come on top.
UniProt Q4U2R8: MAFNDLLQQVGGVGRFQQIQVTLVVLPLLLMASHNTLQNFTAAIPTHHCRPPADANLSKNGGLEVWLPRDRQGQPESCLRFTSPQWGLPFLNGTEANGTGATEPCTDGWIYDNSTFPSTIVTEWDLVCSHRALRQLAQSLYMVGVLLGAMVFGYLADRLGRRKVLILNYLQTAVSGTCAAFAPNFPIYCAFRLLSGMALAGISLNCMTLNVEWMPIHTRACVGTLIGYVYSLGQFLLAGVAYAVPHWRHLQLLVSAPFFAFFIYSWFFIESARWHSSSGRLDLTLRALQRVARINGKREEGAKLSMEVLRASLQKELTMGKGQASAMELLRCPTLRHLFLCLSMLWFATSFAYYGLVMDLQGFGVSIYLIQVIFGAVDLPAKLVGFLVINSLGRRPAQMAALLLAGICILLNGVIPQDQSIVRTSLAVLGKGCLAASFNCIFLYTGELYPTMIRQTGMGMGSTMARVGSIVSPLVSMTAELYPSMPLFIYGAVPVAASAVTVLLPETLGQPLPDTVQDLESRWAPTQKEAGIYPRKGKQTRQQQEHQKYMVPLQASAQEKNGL

Biological target: Solute carrier family 22 member 6 (Homo sapiens, UniProt Q4U2R8)
Assay: TP_TRANSPORTER: inhibition of PAH uptake in OAT1-COS7 cells

With `N[C@H](CSC(F)(F)C(F)Cl)C(=O)O` (stereo partly specified) the pIC50 was 3.75.

pIC50: −log10 of the molar value.
